## scFv variants of Ab-14 (light chain) against a SARS-CoV-2 spike peptide

Binding partner: SARS-CoV-2 spike HR2 peptide, sequence PDVDLGDISGINAS.

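The parent was found by panning a naive human phage display library on the peptide. In library AAYL50, one, two or three CDR residues were substituted; doubles and triples were drawn at random. AlphaSeq pools MATa yeast showing the antibodies with MATalpha yeast showing the peptide. Mating (16 h, 30 °C) was followed by selection of diploids and sequencing of their barcodes. Each replicate has its own calibration line, from reference interactions of the BCL2 family. Each pool was mated in three replicate cultures.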

Parent scFv Ab-14: VH joined to VL by a 15-residue (Gly4Ser)3 linker. Changes lie in the light chain CDRs alone.
VH: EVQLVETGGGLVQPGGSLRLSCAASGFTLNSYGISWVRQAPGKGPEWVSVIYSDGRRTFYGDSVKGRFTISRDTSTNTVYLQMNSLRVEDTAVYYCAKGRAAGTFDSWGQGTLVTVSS
VL: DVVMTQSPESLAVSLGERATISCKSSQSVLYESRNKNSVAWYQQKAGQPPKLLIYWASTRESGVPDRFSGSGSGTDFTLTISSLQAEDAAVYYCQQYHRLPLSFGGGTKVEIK

Substitutions are numbered in sequence along the VL above, starting at 1 (not Kabat). Every variant below is changed at A57 of the VL (sequential numbering). Values are log10 of the apparent Kd in nM; lower means stronger binding. "nd" marks a missing value. The strain was present, yet no cells mated with the target were sequenced in that replicate, which points to weak or no binding. Background: pairings of library AAYL50 with three empty control strains gave a value in 18% of cases (median 4.19, 5th percentile 2.99). Values in that range, when seen in few replicates, are hard to tell from nonspecific mating.

Variant S28F K36C A57R showed nd, 4.93, 4.69. Variant V39T A57K T59E gave nd, 3.34, nd. Variant S33R N35Y A57W showed 4.36, nd, nd. For K24G L30W A57D, the assay gave 1.64, 1.65, 2.13. With S25R R34M A57S the result was 2.91, nd, nd. For K24Y S33K A57G, the assay gave 1.41, 1.42, 1.39.

For Q27D E32D A57W, the assay gave nd, nd, nd. With K36I A57F S58A the result was nd, nd, nd. For A57F Q95K L102K, the assay gave 4.30, 4.93, nd. With K24H A57K E61A the result was 1.03, 1.24, 1.16. Variant A57T R99F gave 2.26, 2.11, 3.15. Variant R34Y A57M gave 1.37, 1.26, 1.55.

For W56G A57S, the assay gave -0.35, 0.00, -0.23. For Q27I A57P S58K, the assay gave nd, nd, nd. For K36H W56I A57P, the assay gave nd, nd, nd. Variant A57I T59E S103G showed nd, nd, nd. Variant R34C A57N P101L showed nd, nd, nd. Variant A57S R60E showed nd, nd, nd.

Variant A57P S58M E61C showed nd, nd, nd. For A57C R99V, the assay gave 4.95, nd, nd. Variant V29N N35P A57V showed 2.49, 3.58, 3.29. For A40R A57T L100G, the assay gave nd, nd, nd. With S28Y A57H P101R the result was 5.26, nd, 4.98. For N35D A57F Q95D, the assay gave 4.95, nd, nd.

Variant N37D S38E A57S gave 3.26, nd, nd. With E32V A57D Q95E the result was nd, nd, nd. For S38R A57I L100H, the assay gave nd, nd, nd. With A57V Q95N the result was nd, nd, nd. Variant N35P A57D S58T gave nd, nd, nd. Variant A40S A57R R60Q gave nd, nd, nd.

With L30R A57M L100P the result was 5.66, 3.52, 4.31. Variant E32A S33W A57M showed nd, 2.16, 2.45. For S25G V39D A57H, the assay gave nd, nd, nd. With E32C N35Y A57F the result was nd, nd, nd. For A57H S58P Y97K, the assay gave nd, 4.83, 3.94. For V29D K36H A57R, the assay gave 1.49, 1.70, 1.57.

Variant W56K A57D Q96F showed 2.53, 2.67, 2.75. For S33T A57L S62T, the assay gave 1.85, nd, nd. Variant W56D A57K R60Q gave 0.18, 0.47, 0.32. Variant A40E A57F E61S showed nd, nd, nd. Variant K36Q A57V showed nd, nd, nd. Variant R34Q A57Q P101C showed 3.45, nd, nd.

For reference, 3 entries of the list once more:

For A40E A57F E61S, the assay gave nd, nd, nd.
For N37D S38E A57S, the assay gave 3.26, nd, nd.
For K36Q A57V, the assay gave nd, nd, nd.

The measurements come from Engelhart et al. 2022 (doi:10.1038/s41597-022-01779-4) through the FLAb antibody collection.